Measured values from publication PMC8073719, “Biochemical and Biophysical Characterization of Recombinant Human 3-Phosphoglycerate Dehydrogenase” (International Journal of Molecular Sciences, 2021).

T1: hPHGDH (Homo sapiens, UniProt O43175)
T1 sequence (O43175 1-533): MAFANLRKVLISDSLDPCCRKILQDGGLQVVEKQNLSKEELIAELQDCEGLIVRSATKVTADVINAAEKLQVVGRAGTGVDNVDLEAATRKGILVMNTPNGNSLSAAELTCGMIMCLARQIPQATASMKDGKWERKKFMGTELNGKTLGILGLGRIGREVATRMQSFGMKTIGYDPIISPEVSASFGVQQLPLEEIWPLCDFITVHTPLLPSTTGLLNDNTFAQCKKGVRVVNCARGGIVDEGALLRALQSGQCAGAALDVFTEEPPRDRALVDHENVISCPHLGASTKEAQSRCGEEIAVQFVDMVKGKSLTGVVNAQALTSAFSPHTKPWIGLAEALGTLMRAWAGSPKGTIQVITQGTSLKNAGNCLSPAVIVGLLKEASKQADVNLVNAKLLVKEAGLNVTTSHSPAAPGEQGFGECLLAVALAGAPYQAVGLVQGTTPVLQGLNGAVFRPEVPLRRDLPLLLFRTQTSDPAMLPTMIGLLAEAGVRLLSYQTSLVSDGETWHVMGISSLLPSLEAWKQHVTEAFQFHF


Legend:
hPHGDH = target: T1, hPHGDH; experiment: hPHGDH reverse reaction kinetics (decrease in NADH fluorescence at 450 nm); conditions: 5 mM NADH, Figure S4A,C,D
From the text: The latter assay was used to determine the apparent kinetic parameters on alternative substrates.

E. coli PHGDH = conditions: reverse reaction; cited from earlier work
[1] = substrate: O=C(O)CCC(=O)C(=O)O; experiment: purified protein, by the assay type; conditions: other: reverse reaction, 5 mM NADH, pH 7.0

Molecule | maximal rate of fit with substrate inhibition (hPHGDH) | kinetic efficiency (E. coli PHGDH) [M⁻¹ s⁻¹] | Km ([1]; Figure S4A,C,D, 37.0 °C) [µM] | Km ([1]; substrate varied, 37 °C) | kcat ([1]; substrate varied, 37 °C) [s⁻¹] | kcat/Km ([1]; substrate varied, 37 °C) [M⁻¹ s⁻¹]
O=C(O)CCC(=O)C(=O)O [α-Ketoglutarate] | 1.0342 | 30000 |  |  |  | 
recombinant human D-3-phosphoglycerate dehydrogenase, His-tagged, full length (enzyme, UniProt O43175 1-533, looked up, D-3-phosphoglycerate dehydrogenase, human, 533 amino acids; synthetic gene back-translated from GenBank CAG33076.1, codon-optimised for E. coli, cloned in pETM11 (NcoI/XhoI); The N-terminal 6xHis tag of pETM11 can be cut by TEV protease, but no cleavage is reported; the tagged monomer has a theoretical mass of 59.776 kDa and was detected with an anti-His antibody in the SEC peaks; Tetramer in …) MAFANLRKVLISDSLDPCCRKILQDGGLQVVEKQNLSKEELIAELQDCEGLIVRSATKVTADVINAAEKLQVVGRAGTGVDNVDLEAATRKGILVMNTPNGNSLSAAELTCGMIMCLARQIPQATASMKDGKWERKKFMGTELNGKTLGILGLGRIGREVATRMQSFGMKTIGYDPIISPEVSASFGVQQLPLEEIWPLCDFITVHTPLLPSTTGLLNDNTFAQCKKGVRVVNCARGGIVDEGALLRALQSGQCAGAALDVFTEEPPRDRALVDHENVISCPHLGASTKEAQSRCGEEIAVQFVDMVKGKSLTGVVNAQALTSAFSPHTKPWIGLAEALGTLMRAWAGSPKGTIQVITQGTSLKNAGNCLSPAVIVGLLKEASKQADVNLVNAKLLVKEAGLNVTTSHSPAAPGEQGFGECLLAVALAGAPYQAVGLVQGTTPVLQGLNGAVFRPEVPLRRDLPLLLFRTQTSDPAMLPTMIGLLAEAGVRLLSYQTSLVSDGETWHVMGISSLLPSLEAWKQHVTEAFQFHF |  |  | 23.7 | 0.024 ± 0.007 [Ki = 13.3 ± 4.6] mM | 1.03 ± 0.10 | 39100
